Each structure is given as a SMILES string. This is a selection; strong and weak results do not stand in their true shares. The source made the active and inactive calls.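 How the source made its calls: active means fluorescence ratio above 2.44, which is 1 plus 3 SD of all ratios; inconclusive means signal too bright to measure linearly, ratio around 10 or more; inactive means fluorescence ratio below 2.44.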

The assay can be described thus: compound autofluorescence on Jurkat cells, primary screen, artefact control for VLA-4 allosteric ligand project, cell-based, flow cytometry (AID 576).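 Further: green fluorescence of cells measured with 488 nm excitation and 530 nm emission; tested at 10 µM compound in the well.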 The settings on record: hits give high values, 1 = vehicle-only cell background.
Regarding `CP(=O)(Nc1ccccn1)Oc1ccccc1` (configuration not stated), the fluorescence ratio is inactive: 0.97. Under `Cc1nc2ccc3ccccc3c2o1.O=[N+]([O-])c1cc([N+](=O)[O-])c(O)c([N+](=O)[O-])c1` stands inactive: 1.11; under `CP(=O)(Nc1ccc2c(c1)OCCO2)Oc1ccccc1` (configuration not stated), inactive: 0.99.

For `Cc1ccccc1NP(C)(=O)Nc1ccccc1C`, the fluorescence ratio was inactive: 1.09. Then `CN(C)CCOC(=O)C(O)(c1ccccc1)C1CCCCC1` (configuration not stated), with inactive: 1.08; and `Cc1ccc(C)c(NP(C)(=O)Oc2ccccc2)c1` (configuration not stated), with inactive: 1.21; and `CP(=S)(Nn1cnnc1)Oc1ccccc1` (configuration not stated), with inactive: 1.05.

These data come from PubChem BioAssay AID576 (NMMLSC, 2007).
